Measured intrinsic clearance values of organic chemicals

Clint is human hepatic intrinsic clearance in µL/min per million cells; 0 means that no clearance was seen. Cells with "–" have no entry in this list.

| structure (SMILES) | name | intrinsic clearance (µL/min/10^6 cells) |
|---|---|---|
| ClC1C(Cl)C(Cl)C(Cl)C(Cl)C1Cl (centres undefined) | 1,2,3,4,5,6-hexachlorocyclohexane | 0 |
| CC(C)(C)c1ccc(CSc2cnn(C(C)(C)C)c(=O)c2Cl)cc1 | Pyridaben | 63.93 |
| CC(C)COC(=O)c1ccccc1C(=O)OCC(C)C | Diisobutyl phthalate | 345 |
| C[C@H]1CCCC(=O)CCCC=Cc2cc(O)cc(O)c2C(=O)O1 | Zearalenone | 209 |
| CCOP(=O)(OCC)Oc1nc(Cl)c(Cl)cc1Cl | Chlorpyrifos oxon | 43.3 |
| CCN(CC)C(=O)C(C)Oc1cccc2ccccc12 (centres undefined) | Napropamide | 15.15 |
| COc1ccc(O)c(C(C)(C)C)c1 | 2-tert-butyl-4-methoxy-phenol | 7.06 |
| Cc1ccc([N+](=O)[O-])cc1N | 2-methyl-5-nitroaniline | 22.4 |
| CC1(C)CNC(=NN=C(/C=C/c2ccc(C(F)(F)F)cc2)/C=C/c2ccc(C(F)(F)F)cc2)NC1 | Hydramethylnon | 4.38 |
| CCNS(=O)(=O)C(F)(F)C(F)(F)C(F)(F)C(F)(F)C(F)(F)C(F)(F)C(F)(F)C(F)(F)F | Sulfluramid | 3.48 |
| C1=CCCC=CCCC=CCC1 | 1,5,9-cyclododecatriene | 17.28 |
| c1ccc2c(c1)oc1ccccc12 | Dibenzofuran | 8.3 |
| CCC(CC)Nc1c([N+](=O)[O-])cc(C)c(C)c1[N+](=O)[O-] | Pendimethalin | 7.21 |
| [O-][N+](=O)/N=C1NCCN1Cc1ccc(Cl)[n]c1 | – | 2.81 |
| ClC(Cl)=C(c1ccc(Cl)cc1)c1ccc(Cl)cc1 | P,p'-dde | 199 |
| O=C(Oc1ccccc1)c1ccccc1C(=O)Oc1ccccc1 | Diphenyl phthalate | 584 |
| CCCCCCCCCCCCN(C)C | N,n-dimethyldodecan-1-amine | 34.2 |
| Clc1ccc(Cl)c(-c2c(Cl)ccc(Cl)c2Cl)c1Cl | Pcb136 | 0 |
| CCOC(=O)C(Cl)Cc1cc(-n2nc(C)n(C(F)F)c2=O)c(F)cc1Cl (centres undefined) | Carfentrazone-ethyl | 854 |
| Cc1ccc([N+](=O)[O-])cc1 | 4-nitrotoluene | 19.32 |

2 of these entries, quoted again:

structure (SMILES)	name	intrinsic clearance (µL/min/10^6 cells)
CCN(CC)C(=O)C(C)Oc1cccc2ccccc12 (centres undefined)	Napropamide	15.15
C1=CCCC=CCCC=CCC1	1,5,9-cyclododecatriene	17.28

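The OPERA project collected these measurements from public sources as training and test data for property models. A listed value is a point estimate from one report or more. Method, purity and exact conditions of the single measurements are not given. The measured form (salt, isomer or mixture) is not always the one drawn. Unmarked limits or estimates from the upstream databases cannot be ruled out.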

Values as listed in the OPERA 2.9 repository of K. Mansouri.